These results are taken from PMC10958125, “A phase I study of docetaxel plus synthetic lycopene in metastatic prostate cancer patients” (Clinical and Translational Medicine, 2024).

The conditions of this data set: human, in vivo.

Structures are written as SMILES.

`CC(C)=CCC/C(C)=C/C=C/C(C)=C/C=C/C(C)=C/C=C/C=C(C)/C=C/C=C(C)/C=C/C=C(\C)CCC=C(C)C` [lycopene]: the “Increase of plasma docetaxel C max with lycopene” value is recorded as 15.1%.
